# Experimental data published in PubChem BioAssay AID1530 (NMMLSC, 2009).
# The list shows a part of the results, in another mix than the full data. Some structures show a salt or complex split into parts, the way the source records it. Calls of active or inactive are those of the source. Rule as the data show it: active = percent response above about 24% (passing the limit was not always enough); inactive = the rest.
# Test system: MEKK2 (MAP3K2) mutant PB1 domain binding to MEK5, human
# Experiment: MEK5 binding signal on mutant MEKK2 PB1, primary screen, biochemical, multiplex bead flow cytometry, Alexa488-MEK5 (AID 1530)
# Settings: at 10 µM, active compounds read high
row,SMILES,percent response
1,O=[N+]([O-])c1cc([N+](=O)[O-])c(Nc2nnnn2CCO)c([N+](=O)[O-])c1,inactive: 14%
2,CCOC(=O)C(CC)C1=NC(C)(C)Cc2ccccc21.O=[N+]([O-])c1cc([N+](=O)[O-])c(O)c([N+](=O)[O-])c1 (stereo not drawn),inactive: 25%
3,CCCOc1ccc(NP(C)(=O)Oc2ccc(Cl)cc2)cc1 (stereo not drawn),inactive: -1%
4,CP(=O)(Nc1ccc(SC(F)(F)F)cc1)Oc1ccccc1 (stereo not drawn),inactive: 0%
5,COc1ccccc1OP(C)(=O)Nc1c(C)cccc1C (stereo not drawn),inactive: -17%
6,CN1CCCCC1COC(=O)C1(O)c2ccccc2CCc2ccccc21 (stereo not drawn),inactive: 3%
7,O=[N+]([O-])c1cc([N+](=O)[O-])c(-n2nnc3ccccc32)c([N+](=O)[O-])c1,inactive: -5%
8,Cc1nc2ccc3ccccc3c2s1.O=[N+]([O-])c1cc([N+](=O)[O-])c(O)c([N+](=O)[O-])c1,inactive: 6%
9,Cc1cc(C)cc(OP(C)(=O)Nc2ccc(C)cc2C)c1 (stereo not drawn),inactive: 8%
10,CCOC(=O)c1ccc(NP(C)(=O)Oc2cc(C)cc(C)c2)cc1 (stereo not drawn),inactive: 0%
11,COc1ccccc1OP(C)(=O)Nc1cccc(Br)c1 (stereo not drawn),inactive: -15%
12,Cc1cc(C)cc(OP(C)(=O)Nc2ccccn2)c1 (stereo not drawn),inactive: 1%
13,CP(=O)(Nc1cccc(Br)c1)Oc1ccccc1 (stereo not drawn),inactive: 2%
14,Cc1ccc(C)c(NP(C)(=O)Oc2ccccc2)c1 (stereo not drawn),inactive: 4%
15,O=C(O)c1cccc(Nc2c([N+](=O)[O-])cc([N+](=O)[O-])cc2[N+](=O)[O-])c1,inactive: -2%
16,CC1=NCCc2c1[nH]c1ccccc21.O=[N+]([O-])c1cc([N+](=O)[O-])c(O)c([N+](=O)[O-])c1,inactive: 14%
17,CC(C)(C)c1ccc(OP(C)(=O)Nc2ccc(SC(F)(F)F)cc2)cc1 (stereo not drawn),inactive: -2%
18,Cc1cccc(C)c1OP(C)(N)=O (stereo not drawn),inactive: -3%
19,O=[N+]([O-])c1ccc2c(c1)C=Nc1ccccc1O2,inactive: 0%
20,COc1ccccc1OP(C)(=O)Nc1cc(Cl)ccc1C (stereo not drawn),inactive: -6%
21,Cc1cc(C)cc(OP(C)(N)=O)c1 (stereo not drawn),inactive: -2%

row,SMILES,percent response
1,CCOC(=O)c1ccc(NP(C)(=O)Oc2ccccc2)cc1 (stereo not drawn),inactive: -1%
2,COc1ccccc1OP(C)(=O)Nc1ccc(C)cc1 (stereo not drawn),inactive: 1%
3,CCN(CC)CCCOC(=O)C(O)(c1ccccc1)c1ccccc1,inactive: -13%
4,CP(=O)(NC(=O)Nc1ccccc1)Oc1ccccc1 (stereo not drawn),inactive: -3%
5,CCc1ccc(OP(C)(=O)N2CCN(c3ccc([N+](=O)[O-])cc3)CC2)cc1 (stereo not drawn),inactive: -19%
6,Cc1cc(C)cc(OP(C)(=O)Nc2ccc(SC(F)(F)F)cc2)c1 (stereo not drawn),inactive: 0%
7,Cc1cccc(C)c1OP(C)(=O)Nc1ccc(SC(F)(F)F)cc1 (stereo not drawn),inactive: 6%
8,CP(=O)(Nc1ccc(SC(F)(F)F)cc1)Oc1ccc(Cl)cc1 (stereo not drawn),inactive: -23%
9,CP(=O)(Oc1ccccc1)OC(c1ccccc1)C(F)(F)F (stereo not drawn),inactive: 0%
10,CP(=O)(Nc1ccccn1)Oc1ccc(Cl)cc1 (stereo not drawn),inactive: 0%
11,CCOP(C)(=S)SCC(=O)NC(C)C(=O)O (stereo not drawn),inactive: 1%
12,CCOC(=O)c1ccc(NP(C)(=O)Oc2ccc(OC)cc2)cc1 (stereo not drawn),inactive: 0%
13,COc1ccccc1OP(C)(=O)Nc1ccccc1 (stereo not drawn),inactive: -1%
14,CP(=O)(Nc1ccccc1Br)Oc1ccccc1 (stereo not drawn),inactive: 1%
15,CP(=S)(Nn1cnnc1)Oc1ccccc1 (stereo not drawn),inactive: 1%
16,CP(=O)(OC12CC3CC(CC(C3)C1)C2)OC12CC3CC(CC(C3)C1)C2,inactive: 2%
17,CCOC(=O)c1ccc(NP(C)(=O)Oc2ccc(Cl)cc2)cc1 (stereo not drawn),inactive: -1%
18,CP(=O)(Oc1ccccc1)N1CCOC1=O (stereo not drawn),inactive: -3%
19,CCc1ccc(OP(C)(=O)Nc2cccnc2)cc1 (stereo not drawn),inactive: -8%
20,COc1ccccc1OP(C)(=O)Nc1c(C)n(C)n(-c2ccccc2)c1=O (stereo not drawn),inactive: 4%
21,O=C(OCCCN1CCCC1)C(O)(c1ccccc1)C1CCCCC1 (stereo not drawn),inactive: -9%

row,SMILES,percent response
1,CCN(CC)CC(O)COC(=O)C(O)(c1ccccc1)C1CCCCC1 (stereo not drawn),inactive: 1%
2,COc1ccc(OP(C)(=O)Nc2ccc(Br)cc2)cc1 (stereo not drawn),inactive: -1%
3,CN(C)C(=O)c1c([N+](=O)[O-])cc([N+](=O)[O-])cc1[N+](=O)[O-],inactive: -4%
4,CP(=O)(Nc1ccc(Cl)cc1)Oc1ccc(F)cc1 (stereo not drawn),inactive: 11%
5,COc1ccccc1OP(C)(=O)Nc1ccccc1Br (stereo not drawn),inactive: -2%
6,CC(C)(C)c1ccc(OP(C)(=O)O)cc1,inactive: 11%
7,CN(C)CCOC(=O)C(O)(c1ccccc1)C1CCCC1 (stereo not drawn),inactive: 1%
8,COc1ccc(OP(C)(=O)Nc2ccccn2)cc1 (stereo not drawn),inactive: 2%
9,COc1ccccc1OP(C)(=O)Nc1ccc(Br)cc1 (stereo not drawn),inactive: -20%
10,CCc1ccc(OP(C)(=O)O)cc1,inactive: 5%
11,CP(=O)(Nc1ccccn1)Oc1ccccc1 (stereo not drawn),inactive: 0%
12,COc1ccccc1OP(C)(=O)Nc1ccc(C)cc1C (stereo not drawn),inactive: 2%
13,Cc1c(NP(C)(=O)Oc2ccc(C(C)C)cc2)c(=O)n(-c2ccccc2)n1C (stereo not drawn),inactive: 3%
14,O=[N+]([O-])c1cc([N+](=O)[O-])c(Nc2ccccn2)c([N+](=O)[O-])c1,inactive: -12%
15,COc1ccc(OP(C)(=O)Nc2ccccc2Br)cc1 (stereo not drawn),inactive: 13%
16,COc1ccccc1OP(C)(=O)Nc1ccc(C)c(C)c1 (stereo not drawn),inactive: 0%
17,Cc1cc(C)cc(OP(C)(=O)Nc2cccc(C(F)(F)F)c2)c1 (stereo not drawn),inactive: -6%
18,CP(=O)(Nc1ccc(Cl)cc1Cl)Oc1ccccc1 (stereo not drawn),inactive: -3%
19,CP(=O)(OCCOc1ccccc1)OCCOc1ccccc1,inactive: 4%
20,Cc1nc2ccc3ccccc3c2o1.O=[N+]([O-])c1cc([N+](=O)[O-])c(O)c([N+](=O)[O-])c1,inactive: -3%
21,COc1ccc(OP(C)(=O)Nc2ccc(SC(F)(F)F)cc2)cc1 (stereo not drawn),inactive: -11%

row,SMILES,percent response
1,CCOC(=O)c1ccc(NP(C)(=O)Oc2ccc(F)cc2)cc1 (stereo not drawn),inactive: -2%
2,CCCCCOc1ccc(NP(C)(=O)Oc2ccc(Cl)cc2Cl)cc1 (stereo not drawn),inactive: 12%
3,O=[N+]([O-])c1cc([N+](=O)[O-])c(OC2CCCCC2O)c([N+](=O)[O-])c1 (stereo not drawn),inactive: 9%
4,CP(=O)(Nc1ccccc1)Oc1ccc(F)cc1 (stereo not drawn),inactive: -1%
5,CCN(CC)CCCOC(=O)C(O)(c1ccccc1)C1CCCCC1 (stereo not drawn),inactive: 6%
6,CC(C)c1ccc(OP(C)(=O)Nc2ccc(SC(F)(F)F)cc2)cc1 (stereo not drawn),inactive: -3%
7,CP(=O)(Nc1ccccc1F)Oc1ccccc1 (stereo not drawn),inactive: 8%
8,COc1ccc2c(c1O)-c1c(O)c(OC)cc3c1[C@H](C2)[N+](C)(C)CC3.O=[N+]([O-])c1cc([N+](=O)[O-])c([O-])c([N+](=O)[O-])c1[O-],inactive: 3%
9,O=C(OCCN1CCN(CCOCc2ccccc2)CC1)C(O)(c1ccccc1)c1ccccc1,inactive: -3%
10,O=C(OC1CN2CCC1CC2)c1ccc([N+](=O)[O-])cc1 (stereo not drawn),inactive: 5%
11,CCOP(C)(=S)SCC(=O)NC(C)(CC)C(=O)O (stereo not drawn),inactive: 3%
12,CP(=O)(Nc1ccc(SC(F)(F)F)cc1)Oc1ccc(F)cc1 (stereo not drawn),inactive: -23%
13,Cc1ccccc1NP(C)(=O)Nc1ccccc1C,inactive: 10%
14,CP(=O)(Nc1ccc2c(c1)OCCO2)Oc1ccccc1 (stereo not drawn),inactive: 8%
15,COc1ccc(NP(C)(=O)Oc2ccccc2OC)cc1 (stereo not drawn),inactive: 13%
16,CN(C)CCOC(=O)C(O)(c1ccccc1)C1CCCCC1 (stereo not drawn),inactive: -5%
17,COc1ccc(OP(C)(=O)Nc2cccc(Br)c2)cc1 (stereo not drawn),inactive: -1%
18,Cc1cc(-c2cccc3ccccc23)c(C)cn1.O=[N+]([O-])c1cc([N+](=O)[O-])c(O)c([N+](=O)[O-])c1,inactive: -3%
19,O=[N+]([O-])c1cc([N+](=O)[O-])c(NCC2CCS(=O)(=O)C2)c([N+](=O)[O-])c1 (stereo not drawn),inactive: -1%
20,O=[N+]([O-])c1ccc(OP2(=O)COCCO2)cc1 (stereo not drawn),inactive: 8%
